Test results: ChEMBL document CHEMBL5550128, “Discovery and preclinical evaluations of TQB3616, a novel CDK4-biased inhibitor” (Bioorg Med Chem Lett, 2024)

Test: Intrinsic clearance in CD-1 mouse at 0.5 mg/kg, iv
Assay type: ADME, organism-based
Conditions: in vivo

CL: 32.9 mL/min/kg
SMILES: CCN1CCN(Cc2ccc(Nc3ncc(F)c(-c4cc(F)c5nc(C)n(C(C)C)c5c4)n3)nc2)CC1 [ABEMACICLIB]
